Results published in patent US20100310640A1.

Molecular target: T1, HLA-DR DRB4*0101 (human)
T1 chain 1: not shown
T1 chain 2: not shown
Test: radiolabeled-peptide inhibition, purified HLA-DR
Conditions: remark: other sources report otherwise

IC50: 0.654 µM
Binder: PESFDGDPASNTAPL [9019.0048]
